Measurements from ChEMBL document CHEMBL4265881, “Synthesis and bioactivity of 3,5-dimethylpyrazole derivatives as potential PDE4 inhibitors” (Bioorg Med Chem Lett, 2018).

Key:
[1] = species: Homo sapiens; test: Selectivity ratio of IC50 for human U937 cells-derived PDE4D to IC50 for human U937 cells-derived PDE4B
[2] = species: Homo sapiens; test: Potency index, ratio of rolipram IC50 to compound IC50 for inhibition of PDE4 in human PBMC assessed as reduction in LPS-stimulated TNFalpha release

Ratio IC50 [1]: 5.6
Ratio IC50 [2]: 1.6
Compound: COc1ccc(-c2ccc(C(=O)n3nc(C)cc3C)o2)cc1
